Values quoted from earlier work in patent US8476466B2 (priority 2008, dated 2013).

system: mice

Row | Substance | 50% lethal dose (LD50, in mice)
1 | arsenious acid | 4.5 mg/kg
2 | arsenocholine | 6000 mg/kg
3 | trimethylarsine oxide | 10600 mg/kg
